Laboratory results: patent US11400269B2, “Using alternating electric fields to increase permeability of the blood brain barrier” (Novocure GmbH, priority 2018, dated 2022)

System: artificial BBB (cerebEND, immortalized murine brain capillary endothelial cells)
Details: 100 kHz alternating electric fields for 72 hours; 4 kDa molecular weight; vs control without fields

fluoresceine isothiocyanate coupled to dextran [FITC-dextrans]
permeability of the artificial BBB to FITC-dextrans: 110 % of the control
